The target in this assay is T1, amyloid-beta peptide (Aβ1–42 fibrils) (Homo sapiens, UniProt P05067).
T1 construct: gene APP; Aβ1–42, pre-formed fibrils
In words: Tyr10 intrinsic fluorescence titration, single-site binding model (positive control).

Sequences of proteins named here, by UniProt entry; tags and fusion partners are left off. Residues count along the entry.
UniProt P05067, 672-713: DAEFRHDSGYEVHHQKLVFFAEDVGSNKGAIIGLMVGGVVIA

Molecules are shown by their SMILES.

Usually Kd stands for the constant that tells how readily two partners part at equilibrium.

Regarding `Cc1ccc2c(c1)sc(-c1ccc(N(C)C)cc1)[n+]2C` [ThT, thioflavin T], the dissociation constant Kd was 9.8 ± 1.4 µM.

The record behind these values is publication PMC8171320, “Modification of amyloid-beta peptide aggregation via photoactivation of strained Ru(II) polypyridyl complexes” (Chemical Science, 2021).
